# Permeability data for macrocyclic peptides

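Lipid, pH, incubation time, direction and concentration are not recorded in the data file. The list need not hold all peptides of the study. Entries at the database's floor value (log10 P of -10) are not listed.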

PAMPA is the parallel artificial membrane permeability assay, which has no cells and reads passive diffusion.
Permeability is in 10^-6 cm/s, converted from the database's log10 values; higher is more permeable.

compound	PAMPA (10^-6 cm/s)
CCCN1CC(=O)N[C@H](CC(C)C)C(=O)N(Cc2ccccc2)CC(=O)N2CCC[C@@H]2C(=O)N(Cc2ccccc2)CC(=O)N[C@@H](Cc2ccccc2)C(=O)N2CCC[C@@H]2C1=O	1.4
CC(C)C[C@H]1C(=O)N[C@@H](Cc2ccccc2)CC(=O)N2CCC[C@H]2C(=O)N(Cc2ccccc2)CC(=O)N[C@@H](Cc2ccccc2)C(=O)N2CCC[C@@H]2C(=O)N(C)[C@@H](C)C(=O)N1C	1.7
CC(C)C[C@@H]1C(=O)N(C)[C@@H](CC(C)C)C(=O)N2CCC[C@H]2C(=O)N(Cc2ccccc2)CC(=O)N[C@@H](Cc2ccccc2)C(=O)N2CCC[C@H]2C(=O)N(C)[C@H](C)C(=O)N1C	2
CC(C)C[C@@H]1C(=O)N2CCC[C@@H]2C(=O)N(C)[C@@H](CC(C)C)C(=O)N[C@@H](Cc2ccccc2)C(=O)N2CCC[C@H]2C(=O)N(C)[C@H](C)C(=O)N(C)[C@@H](CC(C)C)C(=O)N1C	6.9
CC(C)C[C@@H]1C(=O)N[C@@H](Cc2ccccc2)C(=O)N2CCC[C@H]2C(=O)N[C@H](C)C(=O)N(C)[C@@H](CC(C)C)C(=O)N[C@H](CC(C)C)C(=O)N2CCC[C@H]2C(=O)N1C	2.1
CCCN1CC(=O)N(C)[C@@H](CC(C)C)C(=O)N(C)[C@H](CC(C)C)C(=O)N2CCC[C@H]2C(=O)N[C@@H](CC(C)C)C(=O)N[C@@H](Cc2ccccc2)C1=O	19
CC(C)C[C@@H]1NC(=O)[C@@H](C)N(C)C(=O)[C@@H]2CCCN2C(=O)[C@H](Cc2ccccc2)NC(=O)CN(Cc2ccccc2)C(=O)[C@H]2CCCN2C(=O)[C@@H](CC(C)C)NC1=O	0.68
CC(C)C[C@@H]1NC(=O)[C@@H]2CCCN2C(=O)C[C@H](Cc2ccccc2)NC(=O)[C@H](CC(C)C)N(C)C(=O)[C@@H](C)NC(=O)[C@H](Cc2ccccc2)NC1=O	1
CCCN1CC(=O)N[C@H](CC(C)C)C(=O)N(C)[C@@H](CC(C)C)C(=O)N2CCC[C@@H]2C(=O)N[C@@H](CC(C)C)C(=O)N[C@@H](Cc2ccccc2)C(=O)N2CCC[C@@H]2C1=O	1.5
CCCN1CC(=O)N(C)[C@H](CC(C)C)C(=O)N(C)[C@@H](CC(C)C)C(=O)N2CCC[C@H]2C(=O)N(C)[C@H](CC(C)C)C(=O)N[C@@H](Cc2ccccc2)C(=O)N2CCC[C@H]2C1=O	3.9
CC(C)C[C@@H]1C(=O)N2CCC[C@H]2C(=O)N(C)[C@@H](CC(C)C)C(=O)N[C@@H](Cc2ccccc2)C(=O)N[C@H](C)C(=O)N[C@H](CC(C)C)C(=O)N1C	1.2
CC(C)C[C@H]1NC(=O)C[C@H](Cc2ccccc2)NC(=O)[C@H](Cc2ccccc2)NC(=O)[C@@H](CC(C)C)NC(=O)[C@H]2CCCN2C(=O)[C@@H](CC(C)C)NC1=O	0.71
CCCN1CC(=O)N[C@@H](CC(C)C)C(=O)N(C)[C@@H](CC(C)C)C(=O)N2CCC[C@H]2C(=O)N(Cc2ccccc2)CC(=O)N[C@@H](Cc2ccccc2)C(=O)N2CCC[C@@H]2C1=O	6.3
CC(C)C[C@@H]1NC(=O)[C@H](CC(C)C)N(C)C(=O)[C@@H](C)NC(=O)[C@H](Cc2ccccc2)NC(=O)CN(Cc2ccccc2)C(=O)[C@H]2CCCN2C1=O	6.3
CC(C)C[C@H]1NC(=O)[C@H](CC(C)C)N(C)C(=O)[C@@H](C)N(C)C(=O)[C@@H]2CCCN2C(=O)[C@H](Cc2ccccc2)NC(=O)[C@H](CC(C)C)N(C)C(=O)[C@@H]2CCCN2C1=O	8.7
CC(C)C[C@H]1C(=O)N[C@@H](Cc2ccccc2)C(=O)N[C@H](C)C(=O)N(C)[C@@H](CC(C)C)C(=O)N[C@@H](Cc2ccccc2)CC(=O)N2CCC[C@@H]2C(=O)N1C	5.1
CC(C)C[C@@H]1C(=O)N2CCC[C@H]2C(=O)N(C)[C@H](CC(C)C)C(=O)N[C@@H](Cc2ccccc2)C(=O)N[C@@H](C)C(=O)N(Cc2ccccc2)CC(=O)N1C	2.6
CC(C)C[C@H]1NC(=O)[C@H](C)NC(=O)[C@H](Cc2ccccc2)NC(=O)[C@@H](CC(C)C)NC(=O)[C@@H]2CCCN2C(=O)C[C@H](Cc2ccccc2)NC1=O	0.29
CC(C)C[C@@H]1C(=O)N2CCC[C@@H]2C(=O)N(C)[C@H](CC(C)C)C(=O)N[C@@H](Cc2ccccc2)C(=O)N[C@H](C)C(=O)N(Cc2ccccc2)CC(=O)N1C	3.3
CCCN1CC(=O)N(C)[C@H](CC(C)C)C(=O)N(Cc2ccccc2)CC(=O)N2CCC[C@@H]2C(=O)N(C)[C@H](CC(C)C)C(=O)N[C@@H](Cc2ccccc2)C(=O)N2CCC[C@@H]2C1=O	9.3
CC(C)C[C@@H]1NC(=O)[C@@H]2CCCN2C(=O)C[C@H](Cc2ccccc2)NC(=O)[C@@H](CC(C)C)NC(=O)[C@H](C)NC(=O)[C@H]2CCCN2C(=O)[C@H](Cc2ccccc2)NC1=O	0.13

Data: CycPeptMPDB; original report Townsend et al. 2020, doi:10.26434/chemrxiv.13335941.v1.